Experimental findings from patent US20240217973A1, “IMIDAZOPYRIDINE COMPOUNDS AND USE THEREOF” (MEDSHINE DISCOVERY INC., priority 2021, published 2024) are described below.

Sequences of proteins named here, by UniProt entry; tags and fusion partners are left off.
UniProt Q06187, whole entry: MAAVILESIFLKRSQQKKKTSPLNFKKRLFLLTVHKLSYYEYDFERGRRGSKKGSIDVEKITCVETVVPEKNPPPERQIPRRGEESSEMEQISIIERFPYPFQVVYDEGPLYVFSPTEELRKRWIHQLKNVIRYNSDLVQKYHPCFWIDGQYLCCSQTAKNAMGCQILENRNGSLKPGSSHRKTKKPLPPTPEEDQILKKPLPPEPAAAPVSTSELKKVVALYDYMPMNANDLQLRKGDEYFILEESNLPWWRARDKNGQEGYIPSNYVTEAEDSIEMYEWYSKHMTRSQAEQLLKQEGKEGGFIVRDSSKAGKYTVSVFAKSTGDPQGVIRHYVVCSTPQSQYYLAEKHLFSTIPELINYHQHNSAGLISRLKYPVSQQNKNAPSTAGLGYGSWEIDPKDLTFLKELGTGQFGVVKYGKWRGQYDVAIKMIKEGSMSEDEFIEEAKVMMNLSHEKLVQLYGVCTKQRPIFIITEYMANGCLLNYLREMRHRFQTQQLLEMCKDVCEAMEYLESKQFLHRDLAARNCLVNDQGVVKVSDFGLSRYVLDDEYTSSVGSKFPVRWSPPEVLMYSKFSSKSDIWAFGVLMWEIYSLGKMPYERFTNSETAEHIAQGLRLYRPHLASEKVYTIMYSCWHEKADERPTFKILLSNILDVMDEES

The structures appear in SMILES notation.

For the assay, the target named is BTK kinase (Homo sapiens (Human), UniProt Q06187). The experiment in a line: BTK kinase experiment (ADP-Glo). The note with it: read-out: BTK IC50; 2 μM ATP, PolyE4Y1 substrate, 30 minutes pre-incubation. The procedure:
BTK kinase, PolyE4Y1 substrate and Kinase assay buffer III were purchased from Signalchem; ADP-Glo Kinase Assay was purchased from Promega; Nivo multi-label analyzer (PerkinElmer).
1× buffer preparation (which was prepared and used immediately): Kinase assay buffer III was diluted with ddH2O to 1× assay buffer for later use.
The compound to be tested was diluted with 100% DMSO to 10 μM as the first concentration, and followed by a 5-fold dilution to the 8th concentration using a multi-channel pipette, i.e., it was diluted from 10 μM to 0.128 nM.
Each gradient of the compound to be tested was diluted into a working solution with 5% DMSO using 1× buffer, 1 μL/well was added to the corresponding well, and a double-replicate well experiment was set up. 2 μL of BTK enzyme (4 ng) was add to each well and incubating at 25° C. for 30 minutes. After the incubation was completed, 2 μL of a mixture of substrate and ATP (2 μM ATP, 0.2 μg/μL PolyE4Y1) was added to each well and incubating at 25° C. for 120 minutes. At this point, the final concentration gradient of the compound was diluted from 100 nM to 0.00128 nM. […] After reacting at 25° C. for 30 minutes, PerkinElmer Nivo multi-label analyzer was used to read the chemiluminescence, and the integration time was 0.5 seconds. […]
For orientation: ADP-Glo turns the ADP formed in a reaction into a luminescent signal.

For orientation: IC50 means the concentration that gives 50% inhibition. Turning to `Nc1nccc2c1n(-c1ccc(Oc3ccccc3)cc1)c(=O)n2C1CCN(C(=O)/C=C/CF)C1` (single isomer, unassigned) [003A], the half-inhibitory concentration (IC50) amounted to 4.4 nM.
